Patent US20080293712A1, “Benzo[C][2,7]Naphtyridine Derivatives, Methods of Making Thereof and Methods of Use Thereof” (WYETH, priority 2007, published 2008)
Read-outs that look alike come from different tables or passages of the source.

The chains behind the UniProt entries cited, without tags or fusion partners. Where a name states a change or a piece, a line headed by the entry shows the natural chain unless it says otherwise.
UniProt P23443, whole entry: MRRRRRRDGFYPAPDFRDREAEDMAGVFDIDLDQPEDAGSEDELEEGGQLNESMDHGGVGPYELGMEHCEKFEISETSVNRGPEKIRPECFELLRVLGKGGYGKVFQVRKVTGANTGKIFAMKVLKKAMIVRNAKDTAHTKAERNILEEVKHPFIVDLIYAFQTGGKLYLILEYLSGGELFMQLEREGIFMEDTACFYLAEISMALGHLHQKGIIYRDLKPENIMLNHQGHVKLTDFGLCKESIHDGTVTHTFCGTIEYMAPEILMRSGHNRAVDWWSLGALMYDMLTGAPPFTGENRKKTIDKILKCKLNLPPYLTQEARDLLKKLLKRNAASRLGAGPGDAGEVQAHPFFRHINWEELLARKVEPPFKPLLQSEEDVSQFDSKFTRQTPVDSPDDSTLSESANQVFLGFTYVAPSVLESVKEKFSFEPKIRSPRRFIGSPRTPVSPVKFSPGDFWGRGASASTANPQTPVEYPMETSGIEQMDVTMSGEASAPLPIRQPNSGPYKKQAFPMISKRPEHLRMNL
UniProt O15530, whole entry: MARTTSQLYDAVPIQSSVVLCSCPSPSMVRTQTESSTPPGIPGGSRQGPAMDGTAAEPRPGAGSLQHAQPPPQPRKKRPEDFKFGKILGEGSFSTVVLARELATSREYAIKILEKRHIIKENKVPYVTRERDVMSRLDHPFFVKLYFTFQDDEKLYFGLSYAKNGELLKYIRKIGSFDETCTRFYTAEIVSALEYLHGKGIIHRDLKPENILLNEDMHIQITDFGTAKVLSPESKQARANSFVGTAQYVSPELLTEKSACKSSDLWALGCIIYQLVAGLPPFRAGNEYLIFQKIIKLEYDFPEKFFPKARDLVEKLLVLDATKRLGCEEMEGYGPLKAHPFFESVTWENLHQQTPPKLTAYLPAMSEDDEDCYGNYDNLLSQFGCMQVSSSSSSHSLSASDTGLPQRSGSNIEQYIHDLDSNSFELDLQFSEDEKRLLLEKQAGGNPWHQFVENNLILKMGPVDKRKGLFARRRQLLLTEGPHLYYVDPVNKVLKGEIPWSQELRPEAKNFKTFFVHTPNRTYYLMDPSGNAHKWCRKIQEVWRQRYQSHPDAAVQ

Legend:
S6K = S6K (Homo sapiens, UniProt P23443); assay: S6K kinase inhibition, Z'-LYTE FRET assay; conditions: read-out: S6K IC50; 100 μM ATP
PDK-1 = PDK-1 (Homo sapiens, UniProt O15530); assay: PDK-1 kinase inhibition ELISA assay (phosphorylation of His6-tagged SGK1 S422D by PDK-1); format: biochemical; conditions: read-out: Average IC50; PDK-1 ELISA, Table 11
PKA = PKA (Homo sapiens, UniProt P17612); assay: PKA kinase inhibition, Z'-LYTE FRET assay; conditions: read-out: PKA IC50

In the case of `CNc1nc(-c2cncc(OC[C@@H](N)Cc3ccccc3)c2)cc2c1cnc1cc(OC)c(OC)cc12`, the IC50 (S6K) is reported as > 2000 nM, the IC50 (PDK-1) is reported as 823 nM and the IC50 (PKA; 20 μM ATP) is reported as > 4000 nM. For the same molecule, the IC50 (PKA; 100 μM ATP) was > 2000 nM.
